By UniProt entry, the sequences of proteins in these tests, tags left out. Residues count along the entry.
UniProt Q5VWK5, 24-354 limits assumed, looked up: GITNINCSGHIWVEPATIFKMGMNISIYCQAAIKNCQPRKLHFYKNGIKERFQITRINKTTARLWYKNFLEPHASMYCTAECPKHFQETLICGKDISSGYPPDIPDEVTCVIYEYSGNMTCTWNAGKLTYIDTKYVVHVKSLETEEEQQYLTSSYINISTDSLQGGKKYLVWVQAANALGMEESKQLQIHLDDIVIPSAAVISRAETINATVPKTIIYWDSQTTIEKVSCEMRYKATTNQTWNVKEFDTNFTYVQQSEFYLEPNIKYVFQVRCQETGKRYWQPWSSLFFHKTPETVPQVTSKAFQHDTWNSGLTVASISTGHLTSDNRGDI

In patent US10787490B2, “Peptide inhibitors of interleukin-23 receptor and their use to treat inflammatory diseases” (Protagonist Therapeutics, Inc., priority 2015, dated 2020):

biological target: human IL-23R (IL23R_huFC) (Homo sapiens, UniProt Q5VWK5); details: read-out: ELISA IL23R/IL23 in nMoles (IC50); non-cyclic peptides

SMILES | IC50
CSCC[C@H](NC(=O)[C@H](C)NC(C)=O)C(=O)N[C@H](C(=O)N[C@@H](Cc1c[nH]c2ccccc12)C(=O)N[C@@H](CCC(N)=O)C(=O)N[C@@H](CC(=O)O)C(=O)N[C@@H](Cc1ccc(O)cc1)C(=O)N[C@@H](Cc1c[nH]c2ccccc12)C(=O)N[C@@H](CC(C)C)C(=O)N[C@@H](Cc1ccc(O)cc1)C(=O)NCC(=O)N[C@@H](CCCNC(=N)N)C(=O)N[C@@H](CCCCN)C(N)=O)[C@@H](C)O [compound 4] | 4.1 µM
CSCC[C@H](NC(=O)[C@H](C)NC(=O)[C@H](CCCCN)NC(C)=O)C(=O)N[C@H](C(=O)N[C@@H](Cc1c[nH]c2ccccc12)C(=O)N[C@@H](CCC(N)=O)C(=O)N[C@@H](CC(=O)O)C(=O)N[C@@H](Cc1ccc(O)cc1)C(=O)N[C@@H](Cc1c[nH]c2ccccc12)C(=O)N[C@@H](CC(C)C)C(=O)N[C@@H](Cc1ccc(O)cc1)C(=O)NCC(=O)N[C@@H](CCCNC(=N)N)C(N)=O)[C@@H](C)O [compound 6] | 5.6 µM
CSCC[C@H](NC(=O)[C@H](C)NC(C)=O)C(=O)N[C@H](C(=O)N[C@@H](Cc1c[nH]c2ccccc12)C(=O)N[C@@H](CCC(N)=O)C(=O)N[C@@H](CC(=O)O)C(=O)N[C@@H](Cc1ccc(O)cc1)C(=O)N[C@@H](Cc1c[nH]c2ccccc12)C(=O)N[C@@H](CC(C)C)C(=O)N[C@@H](Cc1ccc(O)cc1)C(=O)NCC(=O)N[C@@H](CCCNC(=N)N)C(N)=O)[C@@H](C)O [compound 9] | 6.1 µM
CC(C)C[C@H](NC(=O)[C@H](Cc1c[nH]c2ccccc12)NC(=O)[C@H](Cc1ccc(O)cc1)NC(=O)[C@H](CC(=O)O)NC(=O)[C@H](CCC(N)=O)NC(=O)[C@H](Cc1c[nH]c2ccccc12)NC(=O)[C@@H](NC(=O)[C@H](C)NC(=O)[C@H](C)N)[C@@H](C)O)C(=O)N[C@@H](Cc1ccc(O)cc1)C(=O)NCC(=O)N[C@@H](CCCNC(=N)N)C(=O)O [compound 11] | 7.79 µM
CSCC[C@H](NC(=O)[C@H](C)N)C(=O)N[C@@H](C)C(=O)N[C@@H](Cc1c[nH]c2ccccc12)C(=O)N[C@@H](CCC(N)=O)C(=O)N[C@@H](CC(=O)O)C(=O)N[C@@H](Cc1ccc(O)cc1)C(=O)N[C@@H](Cc1c[nH]c2ccccc12)C(=O)N[C@@H](CC(C)C)C(=O)N[C@@H](Cc1ccc(O)cc1)C(=O)NCC(=O)N[C@@H](CCCNC(=N)N)C(=O)O [compound 12] | 24.2 µM
CSCC[C@H](NC(=O)[C@H](C)N)C(=O)N[C@H](C(=O)N[C@@H](Cc1c[nH]c2ccccc12)C(=O)N[C@@H](C)C(=O)N[C@@H](CC(=O)O)C(=O)N[C@@H](Cc1ccc(O)cc1)C(=O)N[C@@H](Cc1c[nH]c2ccccc12)C(=O)N[C@@H](CC(C)C)C(=O)N[C@@H](Cc1ccc(O)cc1)C(=O)NCC(=O)N[C@@H](CCCNC(=N)N)C(=O)O)[C@@H](C)O [compound 14] | 6.25 µM
CSCC[C@H](NC(=O)[C@H](C)N)C(=O)N[C@H](C(=O)N[C@@H](Cc1c[nH]c2ccccc12)C(=O)N[C@@H](CCC(N)=O)C(=O)N[C@@H](C)C(=O)N[C@@H](Cc1ccc(O)cc1)C(=O)N[C@@H](Cc1c[nH]c2ccccc12)C(=O)N[C@@H](CC(C)C)C(=O)N[C@@H](Cc1ccc(O)cc1)C(=O)NCC(=O)N[C@@H](CCCNC(=N)N)C(=O)O)[C@@H](C)O [compound 15] | 9.59 µM

same assay, conditions: read-out: Human ELISA IL23/IL23R

SMILES | IC50
CC(=O)N[C@H]1CSSC[C@@H](C(=O)N[C@@H](Cc2ccc(O)cc2)C(=O)N[C@@H](Cc2c[nH]c3ccccc23)C(=O)N[C@@H](CCCNC(N)=O)C(=O)N[C@H](C(=O)N[C@@H](Cc2ccccc2)C(=O)NCC(=O)NCCC(=O)N[C@H](CCCCN)C(N)=O)C2CCCCC2)NC(=O)[C@H](C(C)C)NC(=O)[C@H](Cc2c[nH]c3ccccc23)NC(=O)[C@H](CC(=O)O)NC(=O)[C@H](C)NC1=O [compound 39] | > 30 µM
CC(=O)N[C@H]1CSSC[C@@H](C(=O)N[C@@H](Cc2ccc(O)cc2)C(=O)N[C@@](C)(Cc2c[nH]c3ccccc23)C(=O)N[C@@H](CCCNC(N)=O)C(=O)N[C@@H](CCC(C)C)C(=O)N[C@@H](CC(N)=O)C(=O)NCC(=O)NCCOCC(=O)N[C@H](CCCCN)C(N)=O)NC(=O)[C@H](CCC(N)=O)NC(=O)[C@H](Cc2c[nH]c3ccccc23)NC(=O)[C@H]([C@@H](C)O)NC(=O)[C@H](CCC(N)=O)NC1=O [compound 56] | ~6 µM
CC(=O)N[C@H]1CSSC[C@@H](C(=O)N[C@@H](Cc2ccc(O)cc2)C(=O)N[C@H](Cc2c[nH]c3ccccc23)C(=O)N[C@@H](CCCN)C(=O)N[C@@H](CN)C(=O)N[C@@H](Cc2ccccc2)C(=O)NCC(=O)NCCOCC(=O)N[C@H](CCCCN)C(N)=O)NC(=O)[C@H](C(C)C)NC(=O)[C@H](Cc2c[nH]c3ccccc23)NC(=O)[C@H](CC(=O)O)NC(=O)[C@H](C)NC1=O [compound 70] | > 30 µM
CC(=O)N[C@H]1CSSC[C@@H](C(=O)N[C@@H](Cc2ccc(O)cc2)C(=O)N[C@@H](Cc2cc(F)cc(F)c2)C(=O)N[C@@H](CCCN)C(=O)N[C@@H](CN)C(=O)N[C@@H](Cc2ccccc2)C(=O)NCC(=O)NCCOCC(=O)N[C@H](CCCCN)C(N)=O)NC(=O)[C@H](C(C)C)NC(=O)[C@H](Cc2c[nH]c3ccccc23)NC(=O)[C@H](CC(=O)O)NC(=O)[C@H](C)NC1=O [compound 73] | ~6 µM
CC(=O)N[C@H]1CSSC[C@@H](C(=O)N[C@@H](Cc2ccc(O)cc2)C(=O)N[C@H](CC(=O)N[C@@H](CCCN)C(=O)N[C@@H](CN)C(=O)N[C@@H](Cc2ccccc2)C(=O)NCC(=O)NCCOCC(=O)N[C@H](CCCCN)C(N)=O)Cc2c[nH]c3ccccc23)NC(=O)[C@H](C(C)C)NC(=O)[C@H](Cc2c[nH]c3ccccc23)NC(=O)[C@H](CC(=O)O)NC(=O)[C@H](C)NC1=O [compound 78] | ~6 µM
CC(=O)N[C@H]1CSSC[C@@H](C(=O)N[C@@H](Cc2ccc(O)cc2)C(=O)N[C@@H](Cc2c[nH]c3ccccc23)C(=O)N[C@@H](CCCN)C(=O)N[C@@](C)(CC(C)C)C(=O)N[C@@H](Cc2ccccc2)C(=O)NCC(=O)NCCOCC(=O)N[C@H](CCCCN)C(N)=O)NC(=O)[C@H](C(C)C)NC(=O)[C@H](Cc2c[nH]c3ccccc23)NC(=O)[C@H](CC(=O)O)NC(=O)[C@H](C)NC1=O [compound 79] | ~6 µM
CCC(CC)(NC(=O)[C@H](CCCN)NC(=O)[C@H](Cc1c[nH]c2ccccc12)NC(=O)[C@H](Cc1ccc(O)cc1)NC(=O)[C@@H]1CSSC[C@H](NC(C)=O)C(=O)N[C@@H](C)C(=O)N[C@@H](CC(=O)O)C(=O)N[C@@H](Cc2c[nH]c3ccccc23)C(=O)N[C@@H](C(C)C)C(=O)N1)C(=O)N[C@@H](Cc1ccccc1)C(=O)NCC(=O)NCCOCC(=O)N[C@H](CCCCN)C(N)=O [compound 83] | ~6 µM
CC(=O)N[C@H]1CSSC[C@@H](C(=O)N[C@@H](Cc2ccc(O)cc2)C(=O)N[C@@](C)(Cc2ccc(F)cc2)C(=O)N[C@@H](CCCN)C(=O)N[C@@H](CN)C(=O)N[C@@H](Cc2ccccc2)C(=O)NCC(=O)NCCOCC(=O)N[C@H](CCCCN)C(N)=O)NC(=O)[C@H](C(C)C)NC(=O)[C@H](Cc2c[nH]c3ccccc23)NC(=O)[C@H](CC(=O)O)NC(=O)[C@H](C)NC1=O [compound 84] | > 30 µM
